The list shows a part of the results, in another mix than the full data. Activity calls are given as the source filed them. The calls were made as follows: active = hit-call score of the fitted dose curve at least 0.9, where 1 is the maximum; inactive = score below 0.9.

One test in a line: ATG_PPRE_CIS: Attagene CIS-FACTORIAL HepG2 Assay for human Peroxisome Proliferator-activated Response Element (PPRE) (AID 2282958). To be noted: HepG2 PPRE cis-element reporter, Attagene transcription factor profiling; actives raise or lower the signal.
`CCCCCCCCCCCCc1cccc(S(=O)(=O)O)c1`: the molecule was called inactive.
Turning to `CCc1cccc(C)c1N(C(=O)CCl)[C@@H](C)COC`, the molecule was called inactive.
On the same count and under the same terms, under `O=NN1CCCCCCC1` stands “inactive”; under `CCCCC(CC)COC(=O)Cl` (configuration not stated), “inactive”; under `CC[C@H](C)[C@H]1O[C@]2(C=C[C@@H]1C)C[C@@H]1C[C@@H](C/C=C(\C)[C@@H](O[C@H]3C[C@H](OC)[C@@H](O[C@H]4C[C@H](OC)[C@@H](NC)[C@H](C)O4)[C@H](C)O3)[C@@H](C)/C=C/C=C3\CO[C@@H]4[C@H](O)C(C)=C[C@@H](C(=O)O1)[C@]34O)O2`, “inactive”.
On to `O=C=Nc1ccccc1`, for which the molecule was classed as inactive.
Take `CCN(CC)C(=S)S`: the result was inactive.

Another test is described as follows: ATG_RORE_CIS: Attagene CIS-FACTORIAL HepG2 Assay for human RAR-related Orphan Receptor Element (RORE) (AID 2282959). The following applies: HepG2 Attagene cis-factorial RORE reporter, mRNA; actives raise or lower the signal.
For `CCCCCCCCOC(=O)c1ccc(C(=O)OCCCCCCCC)c(C(=O)OCCCCCCCC)c1`, the molecule was called inactive.
On the same count and under the same terms, under `O=S(=O)(C(Cl)(Cl)Cl)C(Cl)(Cl)Cl` stands “inactive”; under `O=P(Oc1ccccc1)(Oc1ccccc1)Oc1ccccc1`, “inactive”.
On to `CCCCCCCCCc1ccc(O)cc1`, for which the result was inactive.
Same read-out and setting: under `CCCCCCCCCCCCc1cccc(S(=O)(=O)O)c1` stands “inactive”.
For `CCc1cccc(C)c1N(C(=O)CCl)[C@@H](C)COC`, the result was inactive.
Same read-out and setting: under `CN(C)[C@@H]1C(=O)C(C(N)=O)=C(O)[C@@]2(O)C(=O)C3=C(O)c4c(O)cccc4[C@@](C)(O)[C@H]3C[C@@H]12` stands “inactive”; under `CNC(=O)Oc1cccc2c1OC(C)(C)O2`, “inactive”.
On the same count and under the same terms, under `Oc1ccc(C(c2ccc(O)cc2)(C(F)(F)F)C(F)(F)F)cc1` stands “inactive”; under `CCCCOCN(C(=O)CCl)c1c(CC)cccc1CC`, “inactive”; under `Cc1ccc(OP(=O)(Oc2ccc(C)cc2)Oc2ccc(C)cc2)cc1` (tested in a mixture with another compound), “inactive”.
Consider `C=CC(=O)OCCCCOC(=O)C=C`, for which the AC50 (commonly the midpoint of the concentration-response curve, whichever way the signal moves) was active: 25.8 µM.
Take `CC(C)C(=O)Cl`: the call was inactive.
Turning to `CC(C)(Cl)Cl`, the outcome was inactive.
Regarding `O=S(=O)(c1ccc(O)cc1)c1ccc(O)cc1`, the molecule was classed as inactive.
Consider `CCOP(=S)(OCC)SCSC(C)(C)C`, for which the result was inactive.
For `Cc1c(F)c(F)c(COC(=O)C2C(/C=C(\Cl)C(F)(F)F)C2(C)C)c(F)c1F` (configuration not stated), the call was inactive.
Same read-out and setting: the result for `O=NN1CCCCCCC1` reads “inactive”.
The same measure, in the same setting: the result for `CCCCC(CC)COC(=O)Cl` (configuration not stated) reads “inactive”.
Turning to `O=P(OCC(Br)CBr)(OCC(Br)CBr)OCC(Br)CBr` (configuration not stated), the AC50 was active: 23.9 µM.
As to `CC1COC(Cn2cncn2)(c2ccc(Oc3ccc(Cl)cc3)cc2Cl)O1` (configuration not stated), the AC50 was active: 3.17 µM.
On to `O=C1C2CC=CCC2C(=O)N1SC(Cl)(Cl)Cl` (configuration not stated), for which the molecule was classed as inactive.
The same measure, in the same setting: the result for `CC(C)O.CC(C)O.OCCN(CCO)CCO.OCCN(CCO)CCO.[Ti]` reads “inactive”; that for `O=C(O)COc1ccc(Cl)cc1Cl`, “inactive”.
With `C=CC(=O)NCNC(=O)C=C`, the call was inactive.
For `CCOP(=S)(OCC)SCSCC`, the AC50 was active: 180 µM.
Consider `CNC(=O)Oc1cccc2c1OC(C)(C)C2`, for which the molecule was classed as inactive.
The same measure, in the same setting: under `Oc1ccccc1Cl` stands “inactive”.
`COc1nn(C(=O)NS(=O)(=O)c2ccccc2OC(F)(F)F)c(=O)n1C`: the molecule was classed as inactive.
As to `O=C=Nc1ccccc1`, the molecule was classed as inactive.
On the same count and under the same terms, the result for `CCN(CC)C(=S)S` reads “inactive”; that for `ClC(Cl)=C(c1ccc(Cl)cc1)c1ccccc1Cl`, “inactive”.
Still for that read-out and setting: the result for `CNC(=O)CSP(=O)(OC)OC` reads “inactive”; that for `C#CCN1C(=O)COc2cc(F)c(N3C(=O)C4=C(CCCC4)C3=O)cc21`, “inactive”; that for `CCOP(=O)(O)C(N)=O`, “inactive”.
